# Measured values: US12492182B2, “Hydroxytriazine compounds and pharmaceutical use thereof” (Japan Tobacco Inc., priority 2015, dated 2025)
# Chains of the proteins cited; added tags and fusions are not shown.
# UniProt O14684, whole entry: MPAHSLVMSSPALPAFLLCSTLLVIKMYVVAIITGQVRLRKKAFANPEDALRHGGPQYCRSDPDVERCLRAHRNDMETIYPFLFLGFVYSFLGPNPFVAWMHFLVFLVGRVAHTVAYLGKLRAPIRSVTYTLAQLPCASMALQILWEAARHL
# Legend:
# [1] = system: A549 cell; test: Evaluation of PGE2 production inhibitory action using A549 cell (IL-1β stimulated); conditions: read-out: cell PGE2 production inhibitory activity (IC50 value), recombinant human IL-1β stimulation
# Method: Experimental Example 2: Evaluation of PGE2 Production Inhibitory Action Using A549 Cell
# A549 cell (Japan Health Sciences Foundation Research Resources Bank), which is cell line derived from humans lung cancer, was suspended in assay medium (Ham's F-12K (Wako, #080-08565) containing 2% FBS (Hyclone Laboratories, #SH30910.03), 100 units/mL penicillin and 100 μg/mL streptomycin (Invitrogen, #15140-122)), the suspension was added at 2.5×10^4 cells/100 μL/well to 96 well flat-bottom plate (Corning, #353072), and the plate was left standing for 20 hr in a CO2 incubator set at 37° C. The test article was serially diluted with DMSO (Nacalai Tesque, #13407-45), and then 20-fold diluted with the assay medium to prepare a test article solution having a ten-fold concentration of the final concentration. The final DMSO concentration during the reaction was set to 0.5% (v/v). […] The supernatant was collected at 180 μL/well, and the PGE2 concentration was measured using Prostaglandin E2 assay (CISbio Bioassays, #62P2APEC) according to the manual. […] Using EnVision 2104 (Perkin Elmer), the time-resolved fluorescence at 620 nm and 665 nm relative to the excitation light at 337 nm was measured. […]
# The PGE2 production inhibitory activity (%) of the test article was calculated according to the following Formula 3. […]
# [2] = target: human mPGES-1 (Homo sapiens, UniProt O14684); test: Evaluation of human mPGES-1 enzyme inhibitory activity (HTRF measurement of PGE2); conditions: read-out: humans mPGES-1 enzyme inhibitory activity; IC50 value; microsome fraction of CHO-S cells expressing human mPGES-1, PGH2 substrate, PGE2 by HTRF
# Method: Experimental Example 1: Evaluation of Human mPGES-1 Enzyme Inhibitory Activity
# The human mPGES-1 enzyme inhibitory activity of a test article was evaluated according to the report of Xu et al. (XU, D et al. MF63 [2-(6-chloro-1H-phenanthro[9,10-d]imidazol-2-yl)-isophthalonitrile], a selective microsomal prostaglandin E synthase-1 inhibitor relieves pyresis and pain in preclinical models of inflammation. J Pharmacol Exp Ther. September 2008, Vol. 326, No. 3, pages 754-763). The amount of PGE2 produced by human mPGES-1 in the presence of a test article was measured by the HTRF (homogeneous time resolved fluorescence) method, and the human mPGES-1 enzyme inhibitory activity of the test article was determined. […]
# A DNA fragment containing human mPGES-1, which is added with a BamHI recognition cleavage sequence just before the translation initiation codon and an EcoRI recognition cleavage sequence just after the translation termination codon, was amplified by the PCR (Polymerase Chain Reaction) method using a human mPGES-1 expression plasmid DNA (pME-18S/iPGES-1) prepared in-house as a template. […] The base sequence of human mPGES-1 cloned to a vector was determined by the Dye Terminator method using BigDye Terminator v3.1 Cycle Sequencing Kit (Applied Biosystems, #4337455). […]
# The protein concentration of the microsome fraction was measured by the Bradford method (Protein Assay Kit, Bio-Rad). […]
Compound,IC50 [1] [nM],IC50 [2] [nM]
CCC[C@@H](C)Oc1ccc(-c2nc(O)nc(-c3cc(CNC(=O)C4(CF)CCCCCC4)ccc3Cl)n2)cn1,2.2,5.7
CCC[C@H](C)Oc1ccc(-c2nc(O)nc(-c3cc(CNC(=O)[C@@](C)(OC)C(F)(F)F)ccc3Cl)n2)cn1,4.9,5.4
